Reference: patent US8486885B2, “β-arrestin effectors and compositions and methods of use thereof” (Trevena, Inc., priority 2008, dated 2013)

Sequences of proteins named here, by UniProt entry; tags and fusion partners are left off.
UniProt P25095, whole entry: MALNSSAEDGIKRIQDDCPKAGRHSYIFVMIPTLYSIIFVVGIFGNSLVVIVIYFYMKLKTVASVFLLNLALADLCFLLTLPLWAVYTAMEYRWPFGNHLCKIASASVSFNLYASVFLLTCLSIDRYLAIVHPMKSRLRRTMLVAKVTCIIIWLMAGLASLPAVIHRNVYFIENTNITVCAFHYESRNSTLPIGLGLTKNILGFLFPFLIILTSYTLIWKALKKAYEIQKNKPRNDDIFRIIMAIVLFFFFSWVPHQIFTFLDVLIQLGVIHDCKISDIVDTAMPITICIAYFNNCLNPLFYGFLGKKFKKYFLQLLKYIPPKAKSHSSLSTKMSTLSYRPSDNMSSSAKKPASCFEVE

Tests used:
Type in all cases: cell-based
[1] = molecular target: human angiotensin 2 type 1 receptor (human AT1R) (Homo sapiens, UniProt P30556); experiment: PathHunter β-arrestin-2 recruitment assay, human AT1R; conditions: PathHunter β-arrestin HEK293 cells
Procedure: (§1) The proximal event in β-arrestin function mediated by GPCRs is recruitment to receptors following ligand binding and receptor phosphorylation by GRK's. Thus, the measure of β-arrestin recruitment was used to determine ligand efficacy for β-arrestin function.
(§2) B-arrestin-2 recruitment to the human and rat angiotensin 2 type 1 receptor (human AT1R and rat AT1aR, respectively) was measured with the PathHunter™ β-arrestin assay (DiscoveRx Corporation, Fremont Calif.). Cells, plasmid(s), and detection reagent(s) were purchased from DiscoveRx, and assays were performed per manufacturer's instructions. Human AT1R and rat AT1aR were cloned into the pCMV-ProLink vector, verified by sequencing, and transfected into PathHunter β-arrestin HEK293 cells. Stably transfected clonal cell lines were selected with Hygromycin and G418. These clonal cell lines were used for all experiments.
(§3) For assays, 25,000 cells were seeded per well in 96-well microplates in volumes of 90 μL and allowed to grow overnight at 37° C. in 5% CO2. Peptides of the invention were dissolved in deionized water to a concentration of 1 mM. […] The microplates were then incubated at room temperature for 60 minutes, and then luminescence was measured using a NOVOstar microplate reader purchased from BMG Labtech. B-arrestin-2 recruitment to receptors was measured as relative luminescence intensity expressed in arbitrary units.

[2] = molecular target: T1, rat angiotensin 2 type 1 receptor (rat AT1aR) (Rattus norvegicus, UniProt P25095); experiment: PathHunter β-arrestin-2 recruitment assay, rat AT1aR; conditions: PathHunter β-arrestin HEK293 cells
Procedure: as §1, §2, §3

[3] = molecular target: T1, rat angiotensin 2 type 1 receptor (rat AT1aR); experiment: IP1 accumulation assay (IP-One Tb), rat AT1aR; design: expressed in transfected cells; conditions: cells expressing rat AT1aR

CC[C@H](C)[C@H](NC(=O)[C@H](Cc1ccc(O)cc1)NC(=O)[C@@H](NC(=O)[C@H](CCCNC(=N)N)NC(=O)[C@H](C)NC)C(C)C)C(=O)N[C@@H](Cc1c[nH]cn1)C(=O)N1CCC[C@H]1C(=O)N[C@H](C)C(=O)O [SEQ ID NO:46, NMAla-Arg-Val-Tyr-Ile-His-Pro-D-Ala-OH]
human AT1R b-arrestin2 Max (%) [1]: 35.5% | rat AT1aR b-arrestin2 Max (%) [2]: 51.4% | EC50 ([2]; read-out: rat AT1aR b-arrestin2 EC50): 63 nM | rat AT1aR IP One EC50 (M) [3]: Inactive
